PGC1a acetyl inh: modulators of PGC1a acetylation. AID 651687. U2OS PGC1a acetylation, AlphaScreen anti-acetyl-lysine; with virally co-expressed GCN5 acetyltransferase. inhibition, % at 15.6 µM. 350,000 tested, 0.17% active;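 active = every replicate shows inhibition of at least 40%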;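 note: 0% = neutral control wells and 100% = positive control wells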
FN deposition inh: fibronectin deposition inhibition; AH1F fibroblasts, Alexa488-fibronectin deposition fluorescence, overnight; inhibition, % at 12.6 µM; 350,000 tested, 0.086% active; AID 743247;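 active = mean inhibition across replicates of 30% or more, regardless of how many single replicates reach that level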;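 note: positive control wells lacked labelled fibronectin entirely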
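Material – AH1F fibroblast monolayer, labelled fibronectin deposition · Reagent – labelled fibronectin 24 nM · Timing – 1 h adhesion, overnight exposure · Measured by – fluorescence at 485 nm excitation, 525 nm emission · Read-out – inhibition of fibronectin deposition signal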
Env fusion inh: HIV envelope-mediated fusion inhibition | HeLa-JRFL Env/CEM21 cell fusion, luciferase | inhibition, % at 12.3 µM | 360,000 tested, 1.1% active | AID 651610;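 active = mean replicate inhibition score of at least 50 and every replicate individually at or above 50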;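 note: 0% = plate neutral controls and 100% = maraviroc near 300 nM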
miR-122 sensor: miR-122 inhibition in Huh7 cells. Huh7 miR-122 Renilla luciferase sensor, 48 h; neutral wells = 0, positive control = 100. activation (reporter increase), % at 12.5 µM. 340,000 tested, 0.3% active;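 active = mean replicate activation score at least 90 and every replicate individually at or above 90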;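 note: higher luciferase means less miR-122 activity so hits act as miR-122 inhibitors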
Yeast UUG start: modulators of start codon recognition fidelity in yeast; AID 602363; activity score, % at 18.7 µM; S. cerevisiae UUG-firefly luciferase reporter, luminescence/redox ratio; 0.13% of 350,000 active;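 active = replicate mean at a twofold rise or more, about +100% in these data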;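 note: firefly luciferase made from a UUG start codon reports start codon fidelity; reporter light over untreated wells divided by growth signal over untreated wells; some hits fall short of that in this replicate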
Cneo AK release: Cryptococcus neoformans lysis via adenylate kinase release; 360,000 tested, 0.2% active; C. neoformans lysis, adenylate kinase release luminescence, 4 h; normalised: neutral wells 0, clomiphene wells 100; lysis activity, % at 15 µM;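 active = mean lysis activity across replicates of at least 80%, whatever share of replicates individually reach that level; inactive = mean lysis activity below 80%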
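Material: C. neoformans cells | Amount: Yeast cell density of 5 × 10^6 cells/mL | Medium: Fresh YPD growth medium | Dosing: Single dose | Times: Static 4 h at 37 °C with compound, 1 h detection | Detection: AK luminescence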
Starred values were filed as active, the others as inactive; . = no result given; ! = not confirmed by another sample. The list is not random: actives were taken first. Their share in the collection is about 1.5%.

Screens by letter – A = PGC1a acetyl inh; B = FN deposition inh; C = Env fusion inh; D = miR-122 sensor; E = Yeast UUG start; F = Cneo AK release
1	C[C@@H]1O[C@@H](O[C@H]2C[C@@H](O)[C@]3(CO)[C@H]4[C@H](O)C[C@]5(C)[C@@H](C6COC(=O)C6)CC[C@]5(O)[C@@H]4CC[C@]3(O)C2)[C@H](O)[C@H](O)[C@H]1O (stereo partly drawn)
  A = 0; B = 8; C = -157; D = 114*; E = 3; F = 0
2	CC1OC(OC2CC(O)C3(CO)C4C(O)CC5(C)C(C6=CC(=O)OC6)CCC5(O)C4CCC3(O)C2)C(O)C(O)C1O (stereo not drawn)
  A = 81*; B = .; C = .; D = -17; E = -12; F = 1
3	COc1ccccc1C1CC2CCC(C1OC(C)=O)N2Cc1ccccc1 (stereo not drawn)
  A = -16; B = 8; C = 9; D = 13; E = -17; F = -2
4	Clc1ccc(OCC#CCN2CCOCC2)cc1
  A = .; B = .; C = -14; D = -10; E = -10; F = -1
5	COc1ccc(CC2NCC(O)C2OC(C)=O)cc1 (stereo not drawn)
  A = 92*; B = .; C = .; D = -14; E = -7; F = 78
6	COc1ccccc1CN1CCN(C(=O)COc2ccccc2)CC1
  A = -14; B = -4; C = 11; D = 8; E = -5; F = -1
7	COOCC1(C(=O)OC)C[C@H](c2ccc(OC)cc2)N(Cc2ccccc2OC)[C@@H]1c1ccccc1C (stereo partly drawn)
  A = .; B = 2; C = 89*; D = .; E = .; F = .
8	S=C(NCCc1ccccc1)N1Cc2cc(Br)ccc2-n2nncc2C1
  A = -8; B = .; C = 57*; D = 52; E = -19; F = 1
9	COc1ccc(-c2ccc3c(c2)CN(C(=S)NCCc2ccccc2)Cc2cnnn2-3)cc1
  A = -26; B = 12; C = 7; D = 119*; E = -12; F = 0
10	CC(=O)OC(C)(C)/C=C/C(=O)[C@](C)(O)[C@H]1[C@H](O)C[C@@]2(C)[C@@H]3CC=C4[C@H](C[C@H](O)C(=O)C4(C)C)[C@]3(C)C(=O)C[C@]12C
  A = 88*; B = .; C = .; D = -15; E = -6; F = 0
11	CC(=O)OC(C)(C)/C=C/C(=O)C(C)(O)C1C(O)CC2(C)C3CC=C4C(CC(O)C(=O)C4(C)C)C3(C)C(=O)CC12C (stereo not drawn)
  A = 70*; B = 30*; C = 65*; D = 2; E = .; F = .
12	CC(=O)OC(C)(C)/C=C/C(=O)C(C)(O)C1[C@H](O)C[C@@]2(C)C3CC=C4C(CC[C@@H](O)C4(C)C)[C@]3(CO)C(=O)C[C@]12C (stereo partly drawn)
  A = .; B = -5; C = -40; D = .; E = -10; F = 0
13	C/C(=N\NP(=S)(c1ccccc1)c1ccccc1)c1ccc(O)cc1O
  A = 23; B = 3; C = 8; D = 82; E = -8; F = 1
14	CCOCCN1CCC(OC(C)=O)C(C)C1 (stereo not drawn)
  A = 42*; B = 8; C = -2; D = 0; E = -21; F = 3
15	C=C1C(=O)O[C@@H]2C[C@@H](C)[C@@H]3C=CC(=O)[C@@]3(C)[C@@H](O)[C@H]12
  A = 47*; B = 50*; C = .; D = -18; E = -28; F = 0
16	C=CCn1c(O)c(/C=C/C=Nc2ccccc2)c(=O)[nH]c1=O
  A = .; B = 5; C = -16; D = .; E = .; F = .
17	CCC(C)C(NC(=O)CCCNC(=O)CCC(=O)OC1O[C@H]2OC3(C)CC[C@H]4[C@H](C)CCC(C1C)C24OO3)C(=O)O (stereo partly drawn)
  A = .; B = -7; C = 58*; D = -7; E = 23; F = -4
18	CC[C@@]1(O)C(=O)OCc2c1cc1n(c2=O)Cc2cc3c(NC(=O)CN)cccc3nc2-1
  A = .; B = -15; C = 69*; D = .; E = 6; F = -1
19	COc1ccc(CCNC2(C#N)CCCCC2)cc1OC
  A = 84*; B = -1; C = -45; D = 2; E = 2; F = 1
20	COc1ccc(CCNC2CCCCC2)cc1OC
  A = .; B = -5; C = -2; D = .; E = .; F = .
21	O=C(c1cccn2c(=O)c3cc(Br)ccc3nc12)N1CCC2(CC1)OCCO2
  A = 13; B = -14; C = 34; D = 0; E = -3; F = 1
22	CC(=O)OC1(C)CC(C)C(=O)C(C(O)CC2CC(=O)NC(=O)C2)C1 (stereo not drawn)
  A = 93*; B = .; C = .; D = -12; E = 95; F = 98*
23	C[C@@H]1C[C@@H]([C@H](O)CC2CC(=O)NC(=O)C2)C(=O)[C@@H](C)C1
  A = 73*; B = .; C = .; D = -26; E = 17; F = -5
24	C[C@H]1CCC/C=C/[C@@H]2C[C@H](O)C[C@H]2[C@H](O)/C=C/C(=O)O1
  A = 69*; B = -2; C = 94*!; D = -10; E = -37; F = -2
25	Cc1cc(N(CCCl)CCCl)ccc1C=NNC(=O)c1cccnc1
  A = 4; B = -8; C = 24; D = -3; E = -2; F = -4

Two compounds from above, showing only miR-122 sensor:
entry | structure | miR-122 sensor
6 | COc1ccccc1CN1CCN(C(=O)COc2ccccc2)CC1 | 8
1 | C[C@@H]1O[C@@H](O[C@H]2C[C@@H](O)[C@]3(CO)[C@H]4[C@H](O)C[C@]5(C)[C@@H](C6COC(=O)C6)CC[C@]5(O)[C@@H]4CC[C@]3(O)C2)[C@H](O)[C@H](O)[C@H]1O (stereo partly drawn) | 114*

High-throughput results (PubChem BioAssay)
